Values quoted from earlier work as cited in PMC8214142.

Target: WDR5 (Homo sapiens) (UniProt P61964)
Experiment: sedimentation velocity

Kd: 120 nM
Substance: MLL1 225-residue MLL1Win-containing polypeptide (from UniProt Q03164)
